# Data: PubChem BioAssay AID540252 (Sanford-Burnham Center for Chemical Genomics, 2011)
# Target: glucose-6-phosphate dehydrogenase-6-phosphogluconolactonase (Plasmodium falciparum 3D7)
# Test: inhibition of P. falciparum G6PD activity – biochemical, end-point NADPH detection, orthogonal assay, dose response (AID 540252)
# Conditions: purified PfG6PD enzyme, NADPH direct detection
smiles,measurement,value
CNc1nc(-c2ccccc2)[n+](-c2ccc(C)cc2)s1,IC50,8.68 µM
